{"sequences": {"note": "Amino acid sequences for entries named in this document (tags omitted). A change or cut given only in a name is not applied to a line headed by its entry.", "UniProt Q9QZN9": "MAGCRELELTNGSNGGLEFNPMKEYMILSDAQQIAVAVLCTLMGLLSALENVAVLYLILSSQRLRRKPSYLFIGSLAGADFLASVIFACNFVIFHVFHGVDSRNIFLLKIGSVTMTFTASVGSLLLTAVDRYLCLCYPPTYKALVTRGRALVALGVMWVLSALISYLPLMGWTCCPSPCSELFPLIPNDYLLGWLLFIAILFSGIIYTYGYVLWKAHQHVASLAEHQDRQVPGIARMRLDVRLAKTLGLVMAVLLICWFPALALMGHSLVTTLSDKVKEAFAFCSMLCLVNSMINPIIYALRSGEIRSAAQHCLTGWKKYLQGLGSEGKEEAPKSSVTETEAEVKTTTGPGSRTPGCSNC"}, "source": "patent US7960376B2", "about": "“Benzo-fused heterocycles” (priority 2007, dated 2011)", "biological_target": "rat CB2 receptor (rCB2) (Rattus norvegicus, UniProt Q9QZN9)", "assay": "cAMP assay (LANCE TR-FRET) in CHO-K1 cells expressing rCB2", "type": "cell-based", "conditions": "read-out: rCB2 EC50 range, intracellular cAMP, NKH-477 prestimulated, + agonist, − inverse agonist"}
{"smiles": "O=S(=O)(c1ccc(C(F)(F)F)cc1)N1CCSc2ccc(-c3nc(-c4cccc(C(F)(F)F)c4)no3)cc21", "note": "[Example 80, 3-(3-(trifluoromethyl)phenyl)-5-(4-(4-(trifluoromethyl)phenylsulfonyl)-3,4-dihydro-2H-benzo[b][1,4]thiazin-6-yl)-1,2,4-oxadiazole]", "values": [{"measurement": "EC50", "result": "> 10", "unit": "µM"}]}
